Chains of the proteins cited; added tags and fusions are not shown.
UniProt P10443, whole entry: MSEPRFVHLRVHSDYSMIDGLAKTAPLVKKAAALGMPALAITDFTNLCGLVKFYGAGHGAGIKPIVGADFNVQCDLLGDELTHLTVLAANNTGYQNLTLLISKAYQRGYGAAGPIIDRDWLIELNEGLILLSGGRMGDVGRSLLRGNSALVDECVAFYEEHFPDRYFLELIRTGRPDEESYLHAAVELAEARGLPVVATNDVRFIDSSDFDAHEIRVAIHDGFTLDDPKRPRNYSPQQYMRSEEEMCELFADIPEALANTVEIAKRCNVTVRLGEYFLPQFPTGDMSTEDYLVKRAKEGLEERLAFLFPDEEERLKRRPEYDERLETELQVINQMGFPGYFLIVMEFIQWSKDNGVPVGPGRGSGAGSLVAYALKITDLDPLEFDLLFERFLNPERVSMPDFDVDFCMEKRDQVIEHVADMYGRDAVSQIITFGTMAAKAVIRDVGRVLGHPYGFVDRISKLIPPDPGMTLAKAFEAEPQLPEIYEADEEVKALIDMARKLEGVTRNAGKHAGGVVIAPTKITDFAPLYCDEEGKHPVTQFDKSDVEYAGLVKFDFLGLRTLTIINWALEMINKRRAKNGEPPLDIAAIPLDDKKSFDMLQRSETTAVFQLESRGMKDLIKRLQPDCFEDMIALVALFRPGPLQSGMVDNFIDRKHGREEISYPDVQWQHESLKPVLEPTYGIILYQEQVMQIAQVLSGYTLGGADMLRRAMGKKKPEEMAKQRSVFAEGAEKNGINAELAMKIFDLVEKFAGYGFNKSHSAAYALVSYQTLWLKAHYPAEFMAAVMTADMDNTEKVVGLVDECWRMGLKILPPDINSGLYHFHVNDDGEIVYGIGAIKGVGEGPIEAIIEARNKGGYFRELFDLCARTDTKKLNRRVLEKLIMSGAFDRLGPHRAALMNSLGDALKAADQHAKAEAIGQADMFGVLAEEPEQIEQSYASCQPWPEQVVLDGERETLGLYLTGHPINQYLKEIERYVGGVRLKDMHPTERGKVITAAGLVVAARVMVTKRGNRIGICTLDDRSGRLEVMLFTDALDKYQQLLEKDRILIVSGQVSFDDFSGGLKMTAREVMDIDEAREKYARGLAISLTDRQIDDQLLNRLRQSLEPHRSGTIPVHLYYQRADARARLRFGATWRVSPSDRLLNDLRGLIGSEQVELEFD

According to patent US9944654B2, “Nargenicin compounds and uses thereof as antibacterial agents” (priority 2014, dated 2018):

Columns and labels:
[1] = molecular target: E. coli DnaE (DNA polymerase III α-subunit from Escherichia coli) (Escherichia coli, UniProt P10443); assay: In vitro DnaE single enzyme assay (E. coli); format: biochemical
[2] = system: Escherichia coli MB5747 (LS 883, tolC); conditions: MHII broth; * = some reduction of growth versus control at […]

**Q.** For `CO[C@H]1C[C@H]2C=C[C@H]3[C@H]4O[C@]2(/C(C)=C/[C@@H](C)[C@@H]([C@@H](C)O)OC1=O)[C@@H]3C(O)[C@@H](C)[C@H]4OC(=O)c1ccc[nH]1` (some centres unmarked), which “E. coli DnaE IC50” value [1] is on record?
**A.** >50 µg/mL

**Q.** What about the “E. coli LS883 tolC (MIC)” value [2] of the same molecule?
**A.** 8 µg/mL
